Literature values, collected in US20200268793A1, “METHODS AND COMPOSITIONS FOR ALLEVIATING CYTOKINE RELEASE SYNDROME” (MEMORIAL SLOAN-KETTERING CANCER CENTER, priority 2017, published 2020).

Test system: cognate murine receptor
Details: cytokines of human origin; cited from earlier work

Molecule: IL-2: cytokine of human origin
- Human on mouse (active on the cognate murine receptor): Yes^39

B1: IL-3: cytokine of human origin (protein, UniProt P08700 20-152, looked up)
Interleukin-3: APMTQTTPLKTSWVNCSNMIDEIITHLKQPPLPLLDFNNLNGEDQDILMENNLRRPNLEAFNRAVKSLQNASAIESILKNLLPCLPLATAAPTRHPIHIKDGDWNEFRRKLTFYLKTLENAQAQQTTLSLAIF
- Human on mouse (active on the cognate murine receptor): No^39
